The numbers were not newly measured in patent US8420131B2, “Composition for obesity treatment” (priority 2011, dated 2013), which cites them from elsewhere.

The conditions of the series: group treated with insulin.

Take insulin: the average weight gain is 6.5 kg.
